Here are results for five compounds from PubChem BioAssay AID624156 (Broad Institute, 2012).

Each structure is given as a SMILES string. The list shows a part of the results, in another mix than the full data. The source made the active and inactive calls. Cut-off read from the data, not from the text of the source: active = ROS induction above about 79% (passing the limit was not always enough); inconclusive = no clear call, values can overlap the other calls.

The assay in a line: ROS inducers in U2OS cancer cells, primary screen, cell-based, H2DCF-DA fluorescence (AID 624156).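 Note: 0% = DMSO vehicle median and 100% = reference compound median.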 To be noted: at 10 µM, hits give high values.
On to `O=C(OC1CN2CCC1CC2)c1ccc(Cl)cc1` (stereo not given), for which the ROS induction (% of piperlongumine) is inactive: 17.2%.
Then `Cc1cccc(OCC(=O)OC2CN3CCC2CC3)c1` (stereo not given), with inactive: 16.3%; and `Cc1ccc(C(=O)OC2CN3CCC2CC3)cc1` (stereo not given), with inactive: 0.486%; and `O=P1(Nc2ccccn2)COc2ccccc2OC1`, with inactive: 12.5%.
Then `CN(C(=O)Cc1ccc(Cl)c(Cl)c1)[C@H]1CCCC[C@@H]1N1CCCC1`, with inactive: 1.35%.
